The numbers were not newly measured in publication PMC10175687, “Population pharmacokinetic analysis and dosing regimen optimization of teicoplanin in critically ill patients with sepsis” (Frontiers in Pharmacology, 2023), which cites them from elsewhere.

The conditions of the data set: previously published PPK model; ref Wi et al., 2017; cited from earlier work. The source says:
This difference was expected, since factors such as endothelial damage, increased capillary permeability, compounded by a large amount o ...

With teicoplanin, the V1 is reported as 15.7 L, the V2 is 71.7 L and the “typical value of CL” value is reported as 0.95 L/h.
